Data on one molecule can be found in ChEMBL document CHEMBL1142715, “Discovery of new tetracyclic tetrahydrofuran derivatives as potential broad-spectrum psychotropic agents” (J Med Chem, 2005).

Chains of the proteins cited; added tags and fusions are not shown.
UniProt P18901, whole entry: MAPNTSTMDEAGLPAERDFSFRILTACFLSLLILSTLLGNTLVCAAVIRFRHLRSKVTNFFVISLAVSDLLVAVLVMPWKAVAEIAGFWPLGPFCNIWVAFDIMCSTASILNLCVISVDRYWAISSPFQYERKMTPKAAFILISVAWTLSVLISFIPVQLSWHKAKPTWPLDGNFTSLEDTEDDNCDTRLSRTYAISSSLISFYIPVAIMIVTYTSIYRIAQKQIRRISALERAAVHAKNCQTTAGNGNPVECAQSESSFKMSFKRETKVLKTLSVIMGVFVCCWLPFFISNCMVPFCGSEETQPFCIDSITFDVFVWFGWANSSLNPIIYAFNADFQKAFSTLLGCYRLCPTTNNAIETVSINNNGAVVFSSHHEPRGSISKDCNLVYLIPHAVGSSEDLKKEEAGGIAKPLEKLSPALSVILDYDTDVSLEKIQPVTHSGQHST

The target of the experiment is D(1A) dopamine receptor (Rattus norvegicus, UniProt P18901).

The molecule `Cc1nc2n(c(=O)c1CCN1CCC(c3noc4cc(F)ccc34)CC1)CCCC2` [RISPERIDONE] returned a Ki of 147 nM.

Usually Ki stands for a measure of affinity in units of concentration, obtained from inhibition or displacement.
